According to patent US5574008A, “Biologically active fragments of glucagon-like insulinotropic peptide” (Eli Lilly and Company, priority 1994, dated 1996):

System: fasted normal Sprague-Dawley rats
Assay: In vivo hyperglycemic clamp assay (glucose up-take assay)
Set-up: species or system rat
Details: 0.3 nmol/kg iv bolus at 60 min
Source text: In vivo Hyperglycemic Clamp Assay (Glucose Up-take Assay) Male Sprague-Dawley rats (Charles Rivers) weighing about 350 grams were allowed to acclimate to their surroundings for a week after which they were cannulated under isoflurane inhalation anesthetic. Two catheters were implanted into the jugular vein for infusions of glucose and GLP-1 fragment. Another catheter was implanted into the carotid artery for sampling blood. The catheters were exteriorized through the skin at the vertex of the head, filled with a glycerol/heparin solution (30 ml glycerol/10 ml heparin from a 1000 u/ml stock solution), and closed off with a one centimeter stainless steel plug. The rats were housed individually in wire mesh cages and were fed ad libitum on a standard rat chow diet. Each animal was given at least one week to recover from surgery before testing any GLP-1 fragments for biological activity. The rats were fasted overnight; on the morning of the experiment, sampling tubes were connected to the indwelling catheters, and the tubes were enclosed in a light weight stainless steel spring for protection. The rats were acclimated to their cages for 15 minutes. All experiments were carried out in conscious, free moving rats. A basal blood sample was taken for measurement of insulin and glucose levels at time zero on the timer. The rats were then given a bolus of 20% dextrose to raise plasma glucose to either 150 mg/dl (8.3 mM) or 200 mg/dl (11.2 mM). Plasma glucose levels were maintained at the chosen level by measuring plasma glucose levels approximately every 5 minutes and adjusting the calibrated variable infusion pump as needed to maintain the established blood glucose levels. Blood samples were collected at 45 and 60 minutes for the control period measurements. At 60 minutes into the clamp, 0.3 nmol/kg of the experimental GLP-1 fragment was injected via the jugular vein catheter and flushed with saline. […] The blood samples were centrifuged in a micro centrifuge to separate the plasma component. Plasma glucose was measured on a Beckman Glucose analyzer II using the glucose oxidase method. Plasma insulin was determined by standard radio immunoassay as per the manufacturer's directions (Diagnostic Products Corp.). The activity of the GLP-1 fragment was determined by the percentage change in glucose infusion rate and change in insulin secreted. These two parameters were compared to control rats that received only diluent. Note: This assay is based on reports that GLP-1 insulinotropic action is glucose dependent. The assay protocol eliminates variability due to falling glucose levels in other protocols using the "bolus" method. The hyperglycemic clamp involved administration of variable amounts of glucose (20% dextrose) to maintain glucose at a constant level of 8.3 or 11.2 mM in fasted normal Sprague-Dawley rats. The hyperglycemic clamp is maintained for 1 hour after which the GLP-1 fragment is injected as a bolus through the jugular vein. […] The glucose infusion rate (GIR) in the last 15 minutes of the control period and after the injection of the peptide is calculated. The activity of the peptide is determined by the increase in glucose infusion rate and change in insulin secreted after the injection of the peptide.

[1] = 150 mg/dl plasma glucose clamp, time 60 min
[2] = 150 mg/dl plasma glucose clamp, time 62 min
[3] = 150 mg/dl plasma glucose clamp, time 64 min
[4] = 150 mg/dl plasma glucose clamp, time 66 min
[5] = 150 mg/dl plasma glucose clamp, time 68 min
[6] = 150 mg/dl plasma glucose clamp, time 70 min
[7] = 150 mg/dl plasma glucose clamp, time 75 min
[8] = 150 mg/dl plasma glucose clamp, time 80 min
[9] = 150 mg/dl plasma glucose clamp, time 85 min
[10] = 150 mg/dl plasma glucose clamp, time 90 min
[11] = 150 mg/dl plasma glucose clamp, time 100 min
[12] = 150 mg/dl plasma glucose clamp, time 110 min
[13] = 150 mg/dl plasma glucose clamp, time 120 min
[14] = 150 mg/dl plasma glucose clamp, time 130 min
[15] = 150 mg/dl plasma glucose clamp, time 140 min
[16] = 150 mg/dl plasma glucose clamp, time 150 min

Compound: CC[C@H](C)[C@H](NC(=O)[C@H](Cc1ccccc1)NC(=O)[C@H](CCC(=O)O)NC(=O)[C@H](CCCCN)NC(=O)[C@H](C)NC(=O)[C@H](C)NC(=O)[C@H](CCC(N)=O)NC(=O)CNC(=O)[C@H](CCC(=O)O)NC(=O)[C@H](CC(C)C)NC(=O)[C@H](Cc1ccc(O)cc1)NC(=O)[C@H](CO)NC(=O)[C@H](CO)NC(=O)[C@@H](NC(=O)[C@H](CC(=O)O)NC(=O)[C@H](CO)NC(=O)[C@@H](NC(=O)[C@H](Cc1ccccc1)NC(=O)[C@@H](NC(=O)CNC(=O)[C@@H](N)CCC(=O)O)[C@@H](C)O)[C@@H](C)O)C(C)C)C(=O)N[C@@H](C)C(=O)N[C@@H](Cc1c[nH]c2ccccc12)C(=O)N[C@@H](CC(C)C)C(=O)N[C@H](C(=O)N[C@@H](CCCCN)C(=O)NCC(=O)N[C@@H](CCCNC(=N)N)C(=O)NCC(=O)O)C(C)C [GLP-1(9-37)OH]
- % Change in GIR (200 mg/dl plasma glucose clamp, time 60 min): 18.229%
- % Change in GIR (200 mg/dl plasma glucose clamp, time 62 min): 20.833%
- % Change in GIR (200 mg/dl plasma glucose clamp, time 64 min): 20.045%
- % Change in GIR (200 mg/dl plasma glucose clamp, time 66 min): 9.789%
- % Change in GIR (200 mg/dl plasma glucose clamp, time 68 min): 17.016%
- % Change in GIR (200 mg/dl plasma glucose clamp, time 70 min): 24.101%
- % Change in GIR (200 mg/dl plasma glucose clamp, time 75 min): 30.211%
- % Change in GIR (200 mg/dl plasma glucose clamp, time 80 min): 13.304%
- % Change in GIR (200 mg/dl plasma glucose clamp, time 85 min): -1.974%
- % Change in GIR (200 mg/dl plasma glucose clamp, time 90 min): -16.488%
- % Change in GIR (200 mg/dl plasma glucose clamp, time 100 min): -34.401%
- % Change in GIR (200 mg/dl plasma glucose clamp, time 110 min): -48.313%
- % Change in GIR (200 mg/dl plasma glucose clamp, time 120 min): -55.055%
- % Change in GIR (200 mg/dl plasma glucose clamp, time 130 min): -56.835%
- % Change in GIR (200 mg/dl plasma glucose clamp, time 140 min): -56.835%
- % Change in GIR (200 mg/dl plasma glucose clamp, time 150 min): -56.835%

Compound: CC[C@H](C)[C@H](NC(=O)[C@H](Cc1ccccc1)NC(=O)[C@H](CCC(=O)O)NC(=O)[C@H](CCCCN)NC(=O)[C@H](C)NC(=O)[C@H](C)NC(=O)[C@H](CCC(N)=O)NC(=O)CNC(=O)[C@H](CCC(=O)O)NC(=O)[C@H](CC(C)C)NC(=O)[C@H](Cc1ccc(O)cc1)NC(=O)[C@H](CO)NC(=O)[C@H](CO)NC(=O)[C@@H](NC(=O)[C@H](CC(=O)O)NC(=O)[C@H](CO)NC(=O)[C@@H](NC(=O)[C@H](Cc1ccccc1)NC(=O)[C@@H](NC(=O)CNC(=O)[C@H](CCC(=O)O)NC(=O)[C@H](C)N)[C@@H](C)O)[C@@H](C)O)C(C)C)C(=O)N[C@@H](C)C(=O)N[C@@H](Cc1c[nH]c2ccccc12)C(=O)N[C@@H](CC(C)C)C(=O)N[C@H](C(=O)N[C@@H](CCCCN)C(=O)NCC(=O)N[C@@H](CCCNC(=N)N)C(=O)NCC(=O)O)C(C)C [GLP-1(8-37)OH]
- % Change in GIR [1]: 5.50%
- Plasma Insulin Change [1]: 0.792 ng/mL
- % Change in GIR [2]: -0.21%
- Plasma Insulin Change [2]: -0.213 ng/mL
- % Change in GIR [3]: -0.21%
- Plasma Insulin Change [3]: -0.079 ng/mL
- % Change in GIR [4]: -0.21%
- Plasma Insulin Change [4]: -0.026 ng/mL
- % Change in GIR [5]: 42.55%
- Plasma Insulin Change [5]: 0.655 ng/mL
- % Change in GIR [6]: 45.77%
- Plasma Insulin Change [6]: 0.324 ng/mL
- % Change in GIR [7]: -6.20%
- Plasma Insulin Change [7]: -0.412 ng/mL
- % Change in GIR [8]: -100.0%
- Plasma Insulin Change [8]: -0.217 ng/mL
- % Change in GIR [9]: -100.0%
- Plasma Insulin Change [9]: -0.489 ng/mL
- % Change in GIR [10]: -100.0%
- Plasma Insulin Change [10]: -0.163 ng/mL
- % Change in GIR [11]: -100.0%
- Plasma Insulin Change [11]: -0.334 ng/mL
- % Change in GIR [12]: -100.0%
- Plasma Insulin Change [12]: -0.324 ng/mL
- % Change in GIR [13]: -100.0%
- Plasma Insulin Change [13]: -0.792 ng/mL
- % Change in GIR [14]: -100.0%
- Plasma Insulin Change [14]: -0.792 ng/mL
- % Change in GIR [15]: -100.0%
- Plasma Insulin Change [15]: -0.792 ng/mL
- % Change in GIR [16]: -100.0%
- Plasma Insulin Change [16]: -0.792 ng/mL
